Assay [1] has as its target TF-VIIa (Homo sapiens, UniProt P08709). In words: TF-VIIa Assay.
For assay [2], the target named is Trypsin (Sus scrofa, UniProt P00761). In words: Trypsin Assay.

Sequences of proteins named here, by UniProt entry; tags and fusion partners are left off. Residues count along the entry.
UniProt P08709, 61-212 limits assumed: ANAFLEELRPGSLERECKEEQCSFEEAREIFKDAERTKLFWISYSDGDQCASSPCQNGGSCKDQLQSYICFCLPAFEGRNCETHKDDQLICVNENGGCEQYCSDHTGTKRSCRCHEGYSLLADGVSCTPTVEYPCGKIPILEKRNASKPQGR
UniProt P08709, 213-466 limits assumed: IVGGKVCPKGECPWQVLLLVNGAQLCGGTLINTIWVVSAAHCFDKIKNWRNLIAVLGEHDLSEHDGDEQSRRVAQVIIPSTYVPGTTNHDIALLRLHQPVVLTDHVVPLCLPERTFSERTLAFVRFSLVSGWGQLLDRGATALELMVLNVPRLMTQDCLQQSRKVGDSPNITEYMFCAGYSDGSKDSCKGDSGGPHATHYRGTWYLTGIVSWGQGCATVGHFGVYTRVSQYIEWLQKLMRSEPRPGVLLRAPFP
UniProt P00761, 9-231: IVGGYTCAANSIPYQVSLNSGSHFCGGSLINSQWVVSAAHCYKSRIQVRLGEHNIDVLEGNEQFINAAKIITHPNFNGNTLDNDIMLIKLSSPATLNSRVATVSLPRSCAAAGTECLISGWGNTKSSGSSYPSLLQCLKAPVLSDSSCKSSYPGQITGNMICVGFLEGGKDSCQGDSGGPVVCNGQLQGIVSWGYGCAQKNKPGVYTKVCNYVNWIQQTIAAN

For `O=C(Cn1c(-c2ccc(-c3ccccc3)cc2)c(Cl)nc(NCCc2ccccc2)c1=O)NCCc1cccnc1` [Example E-0113], the “% Inhibition TF-VIIa (100 µM)” value in assay [1] stood at 14%. Also, the “% Inhibition Trpysin II (100 µM)” value in assay [2] is on record as 11%.

Values taken from EP1586565A1 (dated 2000).
